Compound activity: PubChem BioAssay, ICCB-Longwood Screening Facility, Harvard Medical School
GIV Gai3 FP – inhibitors of GIV GBA-motif binding to rat Galpha-i3. actives 0.42% (n = 210,000). Galpha-i3/FITC-GIV peptide fluorescence polarization, 90 min; active compounds read low; scaled: aluminum fluoride 0%, vehicle 100%. AID 1224905. percent of control (FP), % (no concentration beside the values). P08753;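 active means replicate mean at 85% of control or lower, very high polarization wells dropped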;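 further: wells of about 15 µL received 100 nL stock; the first replicate is given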
HCMV UL50-53 inh – inhibitors of HCMV UL50-UL53 interaction, biochemical, HTRF; normalized percent inhibition; inhibition, % (no concentration beside the values); 190,000 compounds, 0.15% hits; AID 1918969, 2023; in the data active = inhibition above about 27%, passing the limit was not always enough
Active calls of the source: *. Many of the other results were omitted from the sample, so hits are more common in it than they were.

For N#Cc1c(N)nc(SCC(=O)c2ccc(Br)cc2)c(C#N)c1-c1ccc(O)cc1 the results were GIV Gai3 FP 96.6 and HCMV UL50-53 inh 8.9.
For N#Cc1c(N)nc(SCC(=O)c2ccccc2)c(C#N)c1-c1ccc(O)cc1 the results were GIV Gai3 FP 100.0 and HCMV UL50-53 inh 29.6*.
Cc1csc(-c2cc(S(=O)(=O)Nc3ccc(C)c(F)c3)c(C)s2)n1 was read as GIV Gai3 FP 65.7*.
For Cc1csc(-c2cc(S(=O)(=O)Nc3ccc(S(N)(=O)=O)cc3)c(C)s2)n1 the results were GIV Gai3 FP 170.0.
`CCN(C(=O)c1cc2ccccc2o1)c1nc2c(C)cccc2s1` gave HCMV UL50-53 inh -7.1.
For Cc1ccc(C(=O)O)cc1-n1c(C)ccc1-c1ccccc1 the results were GIV Gai3 FP 102.9 and HCMV UL50-53 inh 6.5.
Cc1cc(C(=O)O)ccc1-n1c(C)ccc1C was read as GIV Gai3 FP 96.8 and HCMV UL50-53 inh 34.3*.
`O=C(O)CCCC(=O)Nc1cccc(NC(=O)c2ccco2)c1` gave HCMV UL50-53 inh -1.6.
For CCn1c(Cn2cccn2)nc2cc(NC(=O)c3ccccc3OC)ccc21 the results were GIV Gai3 FP 106.2 and HCMV UL50-53 inh 6.2.
Screening C=CC(=O)Nc1sc2c(c1C(=O)OCC)CCCC2 returned HCMV UL50-53 inh -3.6.
CCOC(=O)c1c(/N=C/C2C(=O)NC(=S)NC2=O)sc2c1CCCCC2 was read as GIV Gai3 FP -20.7*.
CC12CN(C(=O)Cc3ccccc3)CC(C)(CN(C(=O)Cc3ccccc3)C1)C2=O was read as GIV Gai3 FP 97.4 and HCMV UL50-53 inh -17.4.
N#C/C(=C(/O)CN1CCN(S(=O)(=O)c2ccccc2C#N)CC1)c1nc2ccccc2[nH]1 was read as HCMV UL50-53 inh -15.4.
Screening NNC(=O)c1oc2nc(-c3ccccc3)cc(-c3ccccc3)c2c1N returned GIV Gai3 FP 104.8 and HCMV UL50-53 inh -68.4.
For COc1cccc(/C=N/NC(=O)c2oc3nc(-c4ccccc4)cc(-c4ccco4)c3c2N)c1 the results were GIV Gai3 FP -53.5* and HCMV UL50-53 inh -31.6.
O=C(Nc1cc(F)ccc1F)Nc1cc(NC(=O)c2ccc(F)cc2)ccc1N1CCCC1 was read as GIV Gai3 FP 97.4 and HCMV UL50-53 inh -33.2.
CC(C(=O)Nc1ccc(S(N)(=O)=O)cc1)N1C(=O)CCC1=O (configuration not stated) was read as GIV Gai3 FP 106.9 and HCMV UL50-53 inh -22.3.
O=C(Nc1cccc(F)c1)c1ccc(-c2cnc(NC3CCCCC3)nc2)cc1 was read as GIV Gai3 FP 105.7.
Cc1c(C#N)c2nc3ccccc3n2c(=O)/c1=C\Nn1cnnc1 was read as GIV Gai3 FP 118.2.
`Cc1c(C#N)c2nc3ccccc3n2c(=O)/c1=C\Nc1cccc(NC(=O)c2ccccc2)c1` gave GIV Gai3 FP -67.4*.
`COCCC(=O)N1CCCn2nc(-c3cccs3)cc2C1` gave GIV Gai3 FP 104.9.
Screening O=C1CSC2(CCCC2)N1 returned GIV Gai3 FP 105.6 and HCMV UL50-53 inh -11.1.
COc1cccc2c1C(=O)c1c(O)c3c(c(O)c1C2=O)C[C@@](O)(C(=O)CO)C[C@@H]3O[C@H]1C[C@H](N)[C@H](O)[C@H](C)O1 was read as GIV Gai3 FP -14.4* and HCMV UL50-53 inh -177.5.
For COc1cccc2c1C(=O)c1c(O)c3c(c(O)c1C2=O)C[C@@](O)(C(=O)CO)CC3OC1CC(N)C(O)C(C)O1 (some centres not stated) the results were HCMV UL50-53 inh -163.0.
COc1cc(C2Nc3ccc4ccccc4c3C3=C2C(=O)CC(c2ccccc2)C3)ccc1O (configuration not stated) was read as GIV Gai3 FP 106.0.
N=c1oc2c3c4c(cc2cc1C(=O)Nc1ccccc1)CCCN4CCC3 was read as GIV Gai3 FP -62.5* and HCMV UL50-53 inh -3.6.
`N#Cc1ccc(NC(=O)c2ccc(Br)cc2)cc1` gave HCMV UL50-53 inh -29.9.
N#Cc1ccc(NC(=O)c2cc3cc4c5c(c3oc2=N)CCCN5CCC4)cc1 was read as GIV Gai3 FP -13.6*.
Screening Cc1ccc(NC(=O)c2cc3ccccc3oc2=N)cc1 returned GIV Gai3 FP 104.2.
`CCOC(=O)c1ccc(NC(=O)c2cc3cc(Cl)ccc3oc2=N)cc1` gave GIV Gai3 FP 100.0 and HCMV UL50-53 inh -15.5.

Ordered by formula weight (lowest first): part of the list above
`COCCC(=O)N1CCCn2nc(-c3cccs3)cc2C1` gave GIV Gai3 FP 104.9.
O=C(Nc1cccc(F)c1)c1ccc(-c2cnc(NC3CCCCC3)nc2)cc1 was read as GIV Gai3 FP 105.7.
`Cc1c(C#N)c2nc3ccccc3n2c(=O)/c1=C\Nc1cccc(NC(=O)c2ccccc2)c1` gave GIV Gai3 FP -67.4*.

Among those listed so far, two contain bromine:
For N#Cc1c(N)nc(SCC(=O)c2ccc(Br)cc2)c(C#N)c1-c1ccc(O)cc1 the results were GIV Gai3 FP 96.6 and HCMV UL50-53 inh 8.9.
`N#Cc1ccc(NC(=O)c2ccc(Br)cc2)cc1` gave HCMV UL50-53 inh -29.9.

(next part)
For CCOC(=O)c1ccc(NC(=O)c2cc3cc4c5c(c3oc2=N)CCCN5CCC4)cc1 the results were GIV Gai3 FP -13.5* and HCMV UL50-53 inh -8.7.
For COc1ccc(NC(=O)c2cccc3c2SCCC3=O)cc1OC the results were GIV Gai3 FP 96.6 and HCMV UL50-53 inh -18.1.
For CCOC(=O)C1=C(O)/C(=C/c2ccc(N(C)C)cc2)SC1=Nc1ccc([N+](=O)[O-])cc1 the results were GIV Gai3 FP 103.7.
`CCn1c(/N=C/c2ccccc2Cl)nc2ccccc21` gave GIV Gai3 FP 103.9 and HCMV UL50-53 inh 72.1*.
`CCCn1c(/N=C/c2ccccc2Cl)nc2ccccc21` gave HCMV UL50-53 inh 12.9.
Screening Cc1cc(C)nc(NS(=O)(=O)c2ccc(NC(=O)CSc3nnc(-c4ccccc4)c(-c4ccccc4)n3)cc2)n1 returned GIV Gai3 FP 97.7 and HCMV UL50-53 inh -38.3.
Screening O=C(CN1C(=O)c2cccnc2Oc2ccccc21)NCCc1ccccc1 returned GIV Gai3 FP 104.4 and HCMV UL50-53 inh -12.6.
For CCOc1c(OC)cc(/C=C2/C(=O)N(c3ccc(S(N)(=O)=O)cc3)N=C2C)cc1[N+](=O)[O-] the results were GIV Gai3 FP 94.5 and HCMV UL50-53 inh -9.7.
For COc1cc(/C=C2\C(=O)N(c3ccc(S(N)(=O)=O)cc3)N=C2C)cc(Cl)c1OCc1ccccc1 the results were GIV Gai3 FP 96.4 and HCMV UL50-53 inh 60.6*.
For COc1cc(Br)c(/C=C2\C(=O)N(c3ccc(Cl)c(C(=O)O)c3)N=C2C)cc1OC the results were GIV Gai3 FP 111.7.
For COc1cc(/C=C2\C(=O)N(c3ccc(Cl)c(C(=O)O)c3)N=C2C)cc(OC)c1OC the results were GIV Gai3 FP 99.0 and HCMV UL50-53 inh 63.2*.
`Cc1cc(C)n(CCCNC(=O)CSc2nnc(C(F)(F)F)n2C)n1` gave HCMV UL50-53 inh 9.6.
`COC(=O)C1=C(C)N=C2SCC(=O)N2C1c1ccccc1` (configuration not stated) gave GIV Gai3 FP 101.8 and HCMV UL50-53 inh -32.1.
`CCOC(=O)c1c2c(n3ccccc13)C(=O)c1ccccc1C2=O` gave GIV Gai3 FP -41.9*.
Screening CCOC(=O)C1=C(O)c2ccccc2C1=O returned GIV Gai3 FP 100.6.
`CCc1ccc(-c2[nH]ncc2CN2CCCC2c2cc(C(C)C)no2)cc1` (configuration not stated) gave GIV Gai3 FP 112.9.
Nc1c(C(=O)c2cccs2)oc2nc(-c3cccs3)cc(-c3ccco3)c12 was read as GIV Gai3 FP -53.5* and HCMV UL50-53 inh -30.8.
Screening N#Cc1c(-c2ccco2)cc(-c2cccs2)nc1N returned GIV Gai3 FP 114.2 and HCMV UL50-53 inh 45.2.
COc1ccc(-c2noc(CSc3ccc(-c4ccc(F)cc4)nn3)n2)cc1OC was read as GIV Gai3 FP 103.6 and HCMV UL50-53 inh -19.1.
Screening CCOc1ccc(-c2[nH]nc3c2C(c2ccc(Cl)cc2)C(C#N)=C(N)O3)cc1OC (configuration not stated) returned GIV Gai3 FP 109.1.
